## Ab-95 light chain CDR variants: yeast mating affinities

From the AlphaSeq antibody data of Engelhart et al. 2022 (doi:10.1038/s41597-022-01779-4), copy in the FLAb collection.

All variants were tested on one target, the spike HR2 peptide PDVDLGDISGINAS (SARS-CoV-2).

The variants keep the heavy chain, the linker and the frameworks of Ab-95 (scFv order VH, a (GGGGS)3 linker, VL).
VH: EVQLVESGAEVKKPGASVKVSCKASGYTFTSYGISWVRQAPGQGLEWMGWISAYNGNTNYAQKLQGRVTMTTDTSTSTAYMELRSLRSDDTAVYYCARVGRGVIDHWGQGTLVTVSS
VL: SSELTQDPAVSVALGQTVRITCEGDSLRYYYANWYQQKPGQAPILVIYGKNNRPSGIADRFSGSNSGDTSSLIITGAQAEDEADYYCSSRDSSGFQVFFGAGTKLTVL

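Phage display of a naive human antibody library on the peptide gave the parent. In library AAYL52, one, two or three CDR residues were substituted; doubles and triples were drawn at random. The scFvs were displayed on barcoded MATa yeast, the peptide on MATalpha yeast. Binding brings cells together so that they mate, and sequencing counts the barcode pairs among the diploids. Read counts were normalised to the haploid input and turned into Kd by a linear fit to BCL2-family pairs of known affinity, for each replicate. There are three technical replicates.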

Each variant is given by its three light chain CDRs, as the data file delimits them; those of the parent are EGDSLRYYYAN, GKNNRPS, SSRDSSGFQVF. Every variant below is changed at S26 of the VL (sequential numbering). Kd is apparent (estimated from mating counts) and averaged on the log scale over replicates with a signal. Smaller is tighter. A pair that was not seen in any replicate is written "nd"; this usually means weak binding, but a binder can also be missed. Nonspecific signal, from three strains lacking the peptide, appeared in 28% of pairings of library AAYL52, centred on 8.2 µM (5% of these signals below 800 nM); values are not corrected for it. The control count says in how many pairings with the empty strains this scFv gave a signal. For reference, the parent read 200 nM as the reference entry and 180 nM as a member of this library.

CDR-L1,CDR-L2,CDR-L3,Kd (apparent),replicates with signal,empty controls
EGDDLRYYYAN,GKNNRPS,SSRQSSGFQVF,3.8 µM,3 of 3,2 of 9
EGDPLRYYYAT,GKNNRPS,SSNDSSGFQVF,nd,0 of 3,2 of 9
EGDYLRYPYAN,GKNNRPS,SSRDSSGFQVR,6.5 µM,1 of 3,3 of 9
EGDPLRYYYAN,YKNNRPS,SSRDSSGFEVF,2.3 µM,2 of 3,2 of 9
EGDKWRYYYAN,GKNNRPL,SSRDSSGFQVF,2.3 µM,3 of 3,7 of 9
EGDWMRYYYAN,GKNNRPS,CSRDSSGFQVF,6.6 µM,3 of 3,2 of 9
EQDFLRYYYAN,GKNNRPS,SSCDSSGFQVF,52 µM,2 of 3,0 of 9
EPDWLRYYYAN,GKNNRPP,SSRDSSGFQVF,27 µM,3 of 3,4 of 9
QGDYLRYYYAN,GVNNRPS,SSRDSSGFQVF,1.8 µM,3 of 3,5 of 9
EGTTHRYYYAN,GKNNRPS,SSRDSSGFQVF,21 µM,2 of 3,1 of 9
EGDPLCYYYAN,GKNNRPS,SSLDSSGFQVF,nd,0 of 3,1 of 9
MGDILRYYYAN,GKNNRES,SSRDSSGFQVF,10 µM,2 of 3,3 of 9
EGRFLRYYYAN,GKNNRPS,SSRPSSGFQVF,nd,0 of 3,1 of 9
EGDLLRYYYAN,GKNNRPY,SSCDSSGFQVF,4.9 µM,1 of 3,1 of 9
EGDQLRYYYAN,GKNNRPS,SSRDCSGFQVF,5.3 µM,2 of 3,3 of 9
EGDHLRYYYAN,GKNNRPS,SYRDSDGFQVF,15 µM,3 of 3,4 of 9
EGDNLRYYYAN,GKNNRPS,QSRDSSGFCVF,nd,0 of 3,0 of 9
EGDKLRYYYAN,GKNNRPS,SYRDSKGFQVF,2.7 µM,2 of 3,1 of 9
EGDYLRYYYAR,GKYNRPS,SSRDSSGFQVF,3.2 µM,2 of 3,1 of 9
ETDVLRYYYAN,GKNQRPS,SSRDSSGFQVF,57 nM,3 of 3,5 of 9
EGDPLRYYYAN,GHNMRPS,SSRDSSGFQVF,650 nM,3 of 3,4 of 9
EGDYLRYYYAD,FKNNRPS,SSRDSSGFQVF,100 µM,2 of 3,6 of 9
EGWNLRGYYAN,GKNNRPS,SSRDSSGFQVF,360 nM,3 of 3,2 of 9
EGDKLRYYYAN,GKNNRPS,SSRDSSGFIVF,2.8 µM,1 of 3,1 of 9
EGDYLRYYYAN,GKGNPPS,SSRDSSGFQVF,7.5 µM,1 of 3,4 of 9
EGDDLRYYYAN,GKNARPS,DSRDSSGFQVF,2.7 µM,3 of 3,4 of 9
EGDFLRFYYAN,TKNNRPS,SSRDSSGFQVF,17 µM,1 of 3,4 of 9
EGDCLRYYYAN,GKNNRPS,SSRCSSGFIVF,180 µM,1 of 3,4 of 9
EGDCLRYYYAN,HKLNRPS,SSRDSSGFQVF,18 µM,1 of 3,2 of 9
EGEELRYYYAN,GKNNRPS,SSLDSSGFQVF,nd,0 of 3,0 of 9
EGDLLRYYYAN,GKNNIPS,SSRDSSEFQVF,270 µM,1 of 3,2 of 9

From the list, the first 4 with no signal in any replicate:

CDR-L1,CDR-L2,CDR-L3,Kd (apparent),replicates with signal,empty controls
EGDPLRYYYAT,GKNNRPS,SSNDSSGFQVF,nd,0 of 3,2 of 9
EGDPLCYYYAN,GKNNRPS,SSLDSSGFQVF,nd,0 of 3,1 of 9
EGRFLRYYYAN,GKNNRPS,SSRPSSGFQVF,nd,0 of 3,1 of 9
EGDNLRYYYAN,GKNNRPS,QSRDSSGFCVF,nd,0 of 3,0 of 9